Data reported in patent US7291732B2, “Isomeric fused pyrrolocarbazoles and isoindolones” (Cephalon, Inc., priority 1999, dated 2007).

By UniProt entry, the sequences of proteins in these tests, tags left out. Residues count along the entry.
UniProt P35968, 834-1162 limits assumed: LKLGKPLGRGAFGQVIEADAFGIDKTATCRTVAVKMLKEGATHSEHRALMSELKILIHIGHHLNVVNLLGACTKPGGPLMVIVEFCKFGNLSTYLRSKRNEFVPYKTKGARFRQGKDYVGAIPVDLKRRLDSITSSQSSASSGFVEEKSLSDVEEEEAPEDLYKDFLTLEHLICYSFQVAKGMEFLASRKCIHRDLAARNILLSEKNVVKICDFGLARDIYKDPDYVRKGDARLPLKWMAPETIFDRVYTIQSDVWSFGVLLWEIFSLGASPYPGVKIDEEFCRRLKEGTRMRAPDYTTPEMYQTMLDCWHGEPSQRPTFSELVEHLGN
UniProt P09619, 600-962 limits assumed: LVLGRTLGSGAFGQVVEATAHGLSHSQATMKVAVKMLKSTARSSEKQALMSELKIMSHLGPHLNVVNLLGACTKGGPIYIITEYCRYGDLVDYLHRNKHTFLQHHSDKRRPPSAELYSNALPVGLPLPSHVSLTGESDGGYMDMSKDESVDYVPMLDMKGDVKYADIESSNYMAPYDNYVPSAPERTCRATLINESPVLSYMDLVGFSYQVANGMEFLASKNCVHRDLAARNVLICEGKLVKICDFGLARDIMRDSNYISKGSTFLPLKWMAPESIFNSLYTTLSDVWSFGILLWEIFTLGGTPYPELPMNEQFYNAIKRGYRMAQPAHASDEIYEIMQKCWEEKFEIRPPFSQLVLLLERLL
UniProt P04629, 440-796 limits assumed: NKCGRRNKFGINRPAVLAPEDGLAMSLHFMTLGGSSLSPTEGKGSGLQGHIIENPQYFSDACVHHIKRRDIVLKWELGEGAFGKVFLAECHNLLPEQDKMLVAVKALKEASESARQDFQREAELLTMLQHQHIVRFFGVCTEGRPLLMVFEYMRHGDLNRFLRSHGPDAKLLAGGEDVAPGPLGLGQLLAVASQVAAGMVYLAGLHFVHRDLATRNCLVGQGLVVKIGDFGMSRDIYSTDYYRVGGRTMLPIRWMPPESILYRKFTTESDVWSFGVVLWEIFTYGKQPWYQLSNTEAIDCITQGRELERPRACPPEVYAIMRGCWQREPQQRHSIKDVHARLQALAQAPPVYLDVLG

Experiments:
[1] = target: baculovirus-expressed VEGF receptor (human flk-1, KDR, VEGFR2) kinase domain (Homo sapiens, UniProt P35968); test: VEGF receptor kinase activity inhibition, ELISA assay; assay type: biochemical; conditions: read-out: VEGFR kinase IC50; 40 μM ATP; value printed without parentheses
Experimental: Isomeric fused pyrrolocarbazole and isoindolone compounds were examined for their inhibitory effects on the kinase activity of baculovirus-expressed VEGF receptor (human flk-1, KDR, VEGFR2) kinase domain using the procedure described for the trkA kinase ELISA assay described above. The kinase reaction mixture, consisting of 50 mM Hepes, pH 7.4, 40 μM ATP, 10 mM MnCl2, 0.1% BSA, 2% DMSO, and various concentrations of inhibitor, was transferred to PLC-γ/GST-coated plates. VEGFR kinase was added and the reaction was allowed to proceed for 15 min at 37° C. Detection of phosphorylated product was accomplished by addition of anti-phosphotyrosine antibody (UBI). A secondary enzyme-conjugated antibody was delivered to capture the antibody-phosphorylated PLC-γ/GST complex. The activity of the bound enzyme was measured via an amplified detection system (Gibco-BRL). Inhibition data were analyzed using the sigmoidal dose-response (variable slope) equation in GraphPad Prism Results are summarized in Table 6.

[2] = target: baculovirus-expressed PDGFβ receptor kinase domain (Homo sapiens, UniProt P09619); test: PDGF receptor kinase activity inhibition, ELISA assay; conditions: 1 μM compound; 20 μM ATP; value printed in parentheses
[3] = target: baculovirus-expressed human trkA cytoplasmic domain (Homo sapiens, UniProt P04629); test: trkA tyrosine kinase activity inhibition, ELISA-based assay; conditions: 300 nM compound; 40 μM ATP; value printed in parentheses

| Compound | IC50 [1] [µM] | PDGFRβ (% inhibition @ 1 μM) [2] | trkA (% inhibition @ 300 nM) [3] |
| --- | --- | --- | --- |
| O=C1NCc2c3c(c4[nH]c5ccccc5c4c21)-c1ccccc1C3 | 0.166 | (19) % | (38) % |
| O=C1NCc2c3c(c4[nH]c5ccccc5c4c21)-c1ccccc1OC3 | 1.48 | (1) % | (15) % |
| COc1ccc2c(c1)CCc1c3c(c4c([nH]c5ccccc54)c1-2)C(=O)NC3=O | 0.431 | (15) % | (7) % |
